{
  "sequences": {"note": "Protein sequences, listed by entry. Tags and fused reporters are not part of them. Residues count along the entry.", "UniProt P08254, 100-477": "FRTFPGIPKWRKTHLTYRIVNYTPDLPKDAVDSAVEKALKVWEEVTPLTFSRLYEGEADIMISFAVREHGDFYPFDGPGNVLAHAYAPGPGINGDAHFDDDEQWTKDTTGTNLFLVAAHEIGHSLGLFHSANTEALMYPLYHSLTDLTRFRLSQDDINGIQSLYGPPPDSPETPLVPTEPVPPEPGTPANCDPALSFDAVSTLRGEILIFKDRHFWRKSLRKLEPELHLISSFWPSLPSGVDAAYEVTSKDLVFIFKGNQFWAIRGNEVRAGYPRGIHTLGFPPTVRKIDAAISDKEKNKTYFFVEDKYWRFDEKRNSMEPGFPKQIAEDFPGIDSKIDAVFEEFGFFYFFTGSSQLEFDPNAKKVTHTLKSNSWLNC"},
  "source": "patent US9867805B2",
  "about": "(dated 2018)",
  "key": {"MMP-1": {"biological_target": "T1, MMP-1 (Homo sapiens, UniProt P03956)", "T1 sequence (P03956 100-469)": "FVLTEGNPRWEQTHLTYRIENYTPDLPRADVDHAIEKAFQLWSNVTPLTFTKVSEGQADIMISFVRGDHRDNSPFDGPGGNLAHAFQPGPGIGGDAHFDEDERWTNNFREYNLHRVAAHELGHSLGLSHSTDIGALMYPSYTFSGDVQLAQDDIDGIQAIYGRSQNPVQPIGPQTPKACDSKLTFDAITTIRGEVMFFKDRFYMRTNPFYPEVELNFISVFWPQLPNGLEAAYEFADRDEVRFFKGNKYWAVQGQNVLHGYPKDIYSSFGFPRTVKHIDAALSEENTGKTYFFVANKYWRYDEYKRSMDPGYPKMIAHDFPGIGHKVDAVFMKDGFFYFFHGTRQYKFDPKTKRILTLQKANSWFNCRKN", "conditions": "at 20 μM"}, "MMP-3": {"biological_target": "MMP-3 (Homo sapiens, UniProt P08254)", "experiment": "biochemical", "conditions": "read-out: inhibition of MMP-3"}, "MMP-7": {"biological_target": "T2, MMP-7 (Homo sapiens, UniProt P09237)", "T2 sequence (P09237 95-267)": "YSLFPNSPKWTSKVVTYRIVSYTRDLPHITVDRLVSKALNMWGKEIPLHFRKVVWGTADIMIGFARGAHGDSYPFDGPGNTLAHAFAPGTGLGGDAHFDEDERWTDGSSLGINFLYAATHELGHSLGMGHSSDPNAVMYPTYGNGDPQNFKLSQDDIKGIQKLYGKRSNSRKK", "conditions": "at 200 μM"}},
  "note": "Counter-ions that a name gives are not always drawn.",
  "data": [
    {"smiles": "Nc1ccc(Oc2ccc(S(=O)(=O)CC3CS3)cc2)cc1", "note": "(stereo not drawn) [Compound 6, 4-[4-((Thiiran-2-yl)methylsulfonyl)phenoxy]benzamine.HCl salt]", "values": [
      {"measurement": "inhibition of MMP-1", "setting": "MMP-1", "result": "No inhibition"},
      {"measurement": "inhibition at 20 µM", "setting": "MMP-3", "result": 3, "unit": "%"},
      {"measurement": "inhibition of MMP-7", "setting": "MMP-7", "result": "No inhibition"}
    ]}
  ]
}
